pIC50: −log10 of the molar value.
Key:
[1] = species: Homo sapiens; assay: Selectivity ratio of Ki for His-tagged BCL2 (1 to 202) (unknown origin) to Ki for His-tagged MCL1 (171 to 327) (unknown origin)
Summary of the method: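 Buffer 100 mM potassium phosphate pH 7.5 with bovine gamma globulin, azide and 0.01% Triton X-100; 3 h at room temperature. IC50 fitted, then converted to Ki.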

Amino acid sequences for entries named in this document (tags omitted).
UniProt Q07820, whole entry: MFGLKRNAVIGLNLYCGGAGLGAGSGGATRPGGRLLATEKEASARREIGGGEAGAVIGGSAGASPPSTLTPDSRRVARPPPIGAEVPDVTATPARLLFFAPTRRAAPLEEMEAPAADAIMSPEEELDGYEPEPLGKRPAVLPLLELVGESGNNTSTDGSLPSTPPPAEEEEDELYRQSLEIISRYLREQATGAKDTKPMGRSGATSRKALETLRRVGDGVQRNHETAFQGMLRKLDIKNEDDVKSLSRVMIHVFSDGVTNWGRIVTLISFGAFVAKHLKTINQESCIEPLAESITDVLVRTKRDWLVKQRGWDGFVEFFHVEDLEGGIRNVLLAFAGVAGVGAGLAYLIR

[2] = target: Induced myeloid leukemia cell differentiation protein Mcl-1 (Homo sapiens, UniProt Q07820); assay: Binding affinity to His-tagged MCL1 (171 to 327) (unknown origin) expressed in Escherichia coli BL21(DE3) assessed as inhibition of MCL1-N-terminal biotin-labeled BIM BH3 peptide interaction after 30 mins by surface plasmon resonance analysis

Compound | Ratio Ki [1] | pIC50 [2]
O=C(O)CSc1cc(NS(=O)(=O)c2ccc(Oc3ccccc3)cc2)c2ccccc2c1O | 42 | 5.84
O=C(O)CSc1cc(NC(=O)Cc2ccc(Cl)cc2)c2ccccc2c1O | – | 4.74

Reference: ChEMBL document CHEMBL3259780, “3-Substituted-N-(4-hydroxynaphthalen-1-yl)arylsulfonamides as a novel class of selective Mcl-1 inhibitors: structure-based design, synthesis, SAR, and biological evaluation” (J Med Chem, 2014)
